An excerpt weighted towards active compounds, which were near 2.2% of everything screened.
Yeast UUG start: alters start codon recognition fidelity in yeast | S. cerevisiae UUG-firefly luciferase reporter, luminescence/redox ratio | activity score, % at 18.7 µM | hit rate 0.13% among 350,000 | AID 602363;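 active means replicate mean at a twofold rise or more, about +100% in these data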;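 further: firefly luciferase made from a UUG start codon reports start codon fidelity; reporter light over untreated wells divided by growth signal over untreated wells; some hits fall short of that in this replicate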
S100A4 inh HTS: blocks human S100A4 binding to myosin IIA peptide. P26447. S100A4/TAMRA-MyoIIA peptide fluorescence polarization. inhibition, % at 10.7 µM. 0.14% of 360,000 active. AID 652163;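 active = mean inhibition of at least 70% across replicates, with every replicate also reaching that level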
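Assay system: human S100A4 monomer with TAMRA-labelled myosin IIA peptide / Buffer or medium: Calcium-containing HEPES buffer, pH 7.2 / Reagent: TAMRA-labelled myosin IIA heavy-chain peptide probe, 5 nM / Compound: one dose per compound / Timing: polarization read 5 min after assay mix addition, stable 5–60 min / Benchmarks: neutral control DMSO, positive control TFP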
SIRT5 block: sirtuin-5 (human) deacylase inhibition. 1.1% of 330,000 active. AID 652115. Purified SirT5, succinyl-peptide AMC, trypsin-coupled fluorescence. inhibition, % at 15 µM. Q9NXA8; in the data active = inhibition above about 15%
ERp5 inh: ERp5 (human) disulfide isomerase inhibition; Q15084; ERp5 insulin aggregation, absorbance 650 nm, 90 min; inhibition, % at 9.99 µM; 0.05% of 350,000 active;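 active = mean replicate inhibition above about 25%, with every replicate also reaching it, limit read from the data, passing the limit was not always enough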
FGF22 binding: FGF22 (human) thermal shift binding; recombinant FGF22 thermal shift, SYPRO orange fluorescence; percent of sucrose octasulfate shift, DMSO zero; activity (Tm shift, normalised), % at 9.99 µM; 1.5% of 340,000 active; AID 651658;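 active = mean Tm shift, scaled 0 neutral to 100 positive control, at about 1.3% or above, every replicate too, limit read from the data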
PDI turbidity: blocks human protein disulfide isomerase activity; 0.052% of 350,000 active; inhibition, % at 10 µM; P07237; AID 588391; PDI insulin aggregation turbidity, A650, 90 min;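 active = mean inhibition across replicates of 30% or more, whatever share of single replicates reach that level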
Numbers stand for hits; . = inactive; / = not tested or not shown.

SMILES	Yeast UUG start	S100A4 inh HTS	SIRT5 block	ERp5 inh	FGF22 binding	PDI turbidity
Cc1noc(C)c1NC(=O)N(C)C[C@H]1OCCCC[C@H](C)Oc2ccc(NC(=O)Nc3ccc(F)cc3)cc2C(=O)N([C@@H](C)CO)C[C@@H]1C	.	.	.	.	.	/
Cc1noc(C)c1NC(=O)N(C)C[C@@H]1OCCCC[C@H](C)Oc2ccc(NC(=O)Nc3ccc(F)cc3)cc2C(=O)N([C@@H](C)CO)C[C@@H]1C	.	.	31.2	.	.	/
Cc1noc(C)c1NC(=O)N(C)C[C@H]1OCCCC[C@@H](C)Oc2ccc(NC(=O)Nc3ccc(C(F)(F)F)cc3)cc2C(=O)N([C@H](C)CO)C[C@@H]1C	.	.	17.3	.	.	/
Cc1noc(C)c1NC(=O)Nc1ccc2c(c1)C(=O)N([C@H](C)CO)C[C@H](C)[C@@H](CN(C)Cc1ccc(C(F)(F)F)cc1)OCCCC[C@@H](C)O2	.	.	26.2	.	.	/
O=C(Nc1ccc2c(c1)OCO2)N[C@H]1CC[C@H](CCNC(=O)C2CCCC2)O[C@@H]1CO	.	.	.	.	.	/
COc1ccc(-c2ccc3c(c2)O[C@@H](CN(C)C)[C@@H](C)CN([C@@H](C)CO)S3(=O)=O)cc1	.	.	.	.	.	/
Cc1ccc(-c2nc(CS(=O)CC(=O)NCc3ccccn3)c(C)o2)cc1 (stereo unspecified)	.	.	.	.	.	/
Cc1oc(-c2ccccc2F)nc1CS(=O)CC(=O)NCc1ccccn1 (stereo unspecified)	.	.	.	.	44.1	.
Cc1ccc(C(=O)N2CCN(C(=O)c3ccc(C)cc3)C2)cc1	.	.	.	.	43.1	.
Cc1ccc(C(=O)N2CCN(S(=O)(=O)c3ccc(C)c([N+](=O)[O-])c3)C2)cc1	/	.	.	.	43.6	.
Cc1ccc(C(=O)N2CCN(S(=O)(=O)c3ccc(C)cc3)CC2)cc1	/	.	.	.	.	.
COCC#Cc1cnc2c(c1)C(=O)N([C@H](C)CO)C[C@H](C)[C@H](CN(C)C(=O)C1CC1)O2	.	.	.	.	.	/
COc1ccc(C2CC(=O)C(C=NCCO)=C(O)C2)cc1 (stereo unspecified)	.	.	23.2	.	.	.
COc1ccc(C2CC(=O)C(C=NCCO)=C(O)C2)cc1OC (stereo unspecified)	.	/	/	/	/	.
CCC(=O)N(C)C[C@H]1Oc2ncc(C3=CCCC3)cc2C(=O)N([C@@H](C)CO)C[C@@H]1C	.	.	.	.	.	/
Oc1cccc(Nc2nc(-c3ccccc3Cl)nc3ccccc23)c1	.	.	.	.	1.6	.
Clc1ccc(C2=NNC(=NCC3CCCO3)SC2)cc1 (stereo unspecified)	.	.	.	.	43.2	.
CCN1C(=O)[C@H]2[C@@H](c3ccc(-c4cccc(Cl)c4)cc3)N[C@@](CC(C)C)(C(=O)OC)[C@H]2C1=O	.	.	/	.	.	.
CCN1C(=O)[C@H]2[C@@H](c3ccc(-c4ccc(Cl)c(Cl)c4)c(OC)c3)N[C@@](C)(C(=O)OC)[C@H]2C1=O	.	.	/	.	.	.
CCN1C(=O)[C@H]2[C@@H](c3ccc(-c4cccc(Cl)c4)c(OC)c3)N[C@@](CC(C)C)(C(=O)OC)[C@H]2C1=O	.	.	24.9	.	.	.
CCN1C(=O)[C@H]2[C@@H](c3ccc(-c4ccc5c(c4)OCO5)c(OC)c3)N[C@@](C)(C(=O)OC)[C@H]2C1=O	.	98.9	/	.	.	.
Cc1ccc(S(=O)(=O)NCC[C@@H]2CC[C@H](NC(=O)Nc3ccccc3F)[C@H](CO)O2)cc1	.	.	.	.	.	/
O=C1CN(S(=O)(=O)c2ccccc2)C[C@H]2[C@@H](c3ccc(C#Cc4ccccc4)cc3)[C@@H](CO)N12	/	.	.	.	/	/
O=C1CN(S(=O)(=O)c2ccccc2)C[C@@H]2[C@H](c3ccc(C#Cc4ccccc4)cc3)[C@H](CO)N12	/	.	25.3	.	/	/
O=C1CN(S(=O)(=O)Cc2ccccc2)C[C@@H]2[C@H](c3ccc(C#Cc4cccc(F)c4)cc3)[C@H](CO)N12	/	.	16.7	.	/	/
C[C@@H]1CCCCO[C@@H](CN(C)S(=O)(=O)c2ccccc2)[C@H](C)CN([C@@H](C)CO)C(=O)c2cc(NC(=O)c3ccncc3)ccc2O1	.	.	.	.	.	/

Source: PubChem
